Reference: PMC11286758

Molecular target: CSA-DDB1 (human) (UniProt Q13216)
Assay: nano-differential scanning fluorimetry; complexes at 2 µM in 20 mM HEPES pH 7.5, 150 mM NaCl, 5% glycerol, 0.5 mM TCEP; Prometheus NT.48, 350/330 nm ratio, 1 °C/min from 20 to 90 °C; compared with CSA-DDB1 alone

- thermal stabilization (melting curve) against CSA-DDB1 alone: 1 degree
Substance: DDA1 (recombinant, C-terminal TwinStrep-flag tag) (from UniProt Q9BW61 1-102) (natural protein)
